{"source": "patent US9439888B2", "about": "“Tetrazolones as a carboxylic acid bioisosteres” (RIGEL PHARMACEUTICALS, INC., priority 2015, dated 2016)", "target": "T1, angiotensin II receptor type 1 (AT1) (Homo sapiens, UniProt P30556)", "T1 construct": "expressed in transfected cells; host or cells: HEK-293", "assay": "AT1 antagonist activity: inhibition of response to 3 nM angiotensin-II, intracellular Ca2+ by fluorimetry", "assay_type": "cell-based", "details": "HEK-293 cells expressing hAT1", "data": [{"smiles": "CCCc1nc2c(C)cc(-c3nc4ccccc4n3C)cc2n1Cc1ccc(-c2ccccc2C(=O)O)cc1", "note": "[Telmisartan, reference compound]", "values": [{"measurement": "Kb", "result": 440, "unit": "pM"}]}]}
